{
  "source": "patent US11219645B2",
  "about": "“Tumor infiltrating lymphocytes for treatment of cancer” (Duke University, priority 2015, dated 2022)",
  "system": "TILs from human lung tumors",
  "experiment": "In vitro expansion of human TILs cultured with IL-2 and/or IL-10",
  "format": "cell-based",
  "conditions": "IL-2 alone, 6,000 U/mL rIL-2; FIG. 5A",
  "protocol": "TILs were isolated and cultured in the presence of 6,000 U/mL rIL-2, 100 U/mL rIL-10, or 6,000 U/mL rIL-2 plus 100 U/mL rIL-10. The numbers of live TILs counted are shown (y-axis). […] The expanded TILs in FIG. 5A were activated by anti-CD3/CD28 antibodies for 24 hours and tested for their ability to kill autologous primary tumor cells at an Effector:Target ratio of 20:1. The killing activity was measured at 15-minute intervals by Impedance assay. FIGS. 5C-D show IFNγ and TNFα expression in CD8+ TILs expanded in vitro. TILs from lung cancers were expanded in complete culture medium with 6,000 U/mL rIL-2 alone or combined with 100 U/mL rIL-10 for 20 days. IFNγ and TNFα expression in CD8+ TILs was analyzed by flow cytometry. Results shown in FIGS. 5A-D are representative of 3 to 6 patients. […] FIGS. 5F-J show mRNA expression of different pathways as indicated in IL-10/IL-2—treated human CD8+ TILs. Plotted are relative expression levels of mRNAs compared with those from IL-2-treated cells for each indicated gene based on gene chip data. Shown are the mean±SEM. Significance was determined by ANOVA in FIGS. 5F-J (*, P≤0.05; **, P≤0.01).\nHuman TILs Culture: Tumors were sliced with a sharp scalpel into small pieces (approximately 2 mm on each side). […]",
  "data": [
    {"substance": "IL-2: interleukin-2, recombinant cytokine used to expand TILs", "values": [
      {"measurement": "expansion of TILs", "result": "started to expand and enter logarithmic growth phase after 2 weeks of culture"}
    ]}
  ]
}
